For one compound, MMC, MIC and zones of inhibition results are on record in patent publication US20150258059A1, “ANTIMICROBIAL AND RADIOPROTECTIVE COMPOUNDS” (BioDiem, Ltd, priority 2001, published 2015).

In brackets after ≈: the same amount, converted by molar mass. Where two headings read alike, the source gives them in different places.

Assay type in all cases: cell-based
The test system of experiment [1] is E. faecalis-clinical isolate 2. The experiment can be described thus: microbe, parasite or virus in culture.
The test system of experiment [2] is Streptococcus pyogenes. The experiment can be described thus: Agar diffusion bioassay (well and disk). As to conditions: any concentration from 1 to 512 μg/mL; bound to agar. The text has this:
(§1) Both well diffusion and disk diffusion assays were attempted.
A general note: A growth-free zone around the sample is the usual read-out of agar diffusion tests.

The test system of experiment [3] is susceptible strains of S. aureus. The experiment can be described thus: Agar diffusion bioassay (well and disk). As to conditions: any concentration from 1 to 512 μg/mL; bound to agar.
From the text: as §1

Regarding `C/C(=C\c1ccc2c(c1)OCO2)[N+](=O)[O-]` [Compound (1)], the MMC in experiment [1] stood at 32 µg/mL; in experiment [1] (35° C., 24 hours) it was 32 µg/mL. In experiment [1] (Enterococcus faecalis, 35° C., 24 hours), the MIC is 32 mg/L (≈ 154 µM). Also, the zones of inhibition entry in experiment [2] and in experiment [3] was “no zones of inhibition were produced” each time.
